Among the data in PubChem BioAssay AID589 (National Center for Advancing Translational Sciences (NCATS), 2007) are outcome values, retold here.

The entries are a selection whose mix differs from that of the whole data set. Some tests of the compounds listed are not included; inactive here does not mean inactive elsewhere. Results filed as inconclusive are left out. Active and inactive are the calls of the source. Rule as the data show it: active = max dye-equivalent concentration above about 10 nM; inconclusive = mostly about 1.1 nM to 9.6 nM; inactive = weaker than that.

The nature of the test: qHTS Assay for Spectroscopic Profiling in 4-MU Spectral Region. The following applies: compound autofluorescence, 340/450 nm, 4-MU equivalents. The source says:
NIH Molecular Libraries Screening Centers Network [MLSCN] NIH Chemical Genomics Center [NCGC] […] Occasionally, the artifactual effect may originate from the compounds own spectral or other biophysical properties which generally tend to track its assay concentration. Pre-screening/profiling the library with respect to the compounds spectral properties should help one exclude false positives early on. While the most informative fluorescent profiling data set is obtained by performing a full excitation and emission scan of each well by using a monochromator-based plate reader, such an approach is practical only on a very limited scale as scanning each well requires long time. An alternative approach, applied here, is to perform plate reader scans using selected excitation and emission wavelength pairs to generate a multidimensional relational database that correlates compound concentration and the respective relative fluorescence intensity at a given wavelength set. A standard curve of 4-methylumbelliferone (4-MU) present on each plate as six-point concentration series, was used to compute a normalized fluorescence response, termed dye-equivalent concentration, for each compound at each concentration.
NCGC Assay Protocol Summary: Buffer: 100 mM Tris buffer, pH 8.0 Dye standard plate: The wells in columns 1 through 4 of a Kalypsys polypropylene 1536-well compound plate were filled with standard solutions of fluorophore corresponding to the spectral region of interest. Solutions of 4-MU were placed in the following wells: A1, B1: 3 mM, A2, B2: 300 uM, A3, B3: 30 uM, A4, B4: zero (DMSO), C1, D1: 3 uM, C2, D2: 900 nM, C3, D3: 300 nM, C4, D4: zero (DMSO). Assay Steps: Six uL of buffer were dispensed to 1536-well Greiner black plates. Compounds and dye standards (23 nL) were transferred via Kalypsys PinTool. The plates were incubated for 15 min at room temperature, and then read on ViewLux (Perkin-Elmer) High-throughput CCD imager using 340 nm and 450 nm excitation and emission filter set. Keywords: NIH Roadmap, MLSCN, MLI, MLSMR, qHTS, NCGC, Fluorescent Profiling, 4MU, 4-MU
(Quantitative high-throughput screening tests each substance at several concentrations.)
As for `C=C(C)C#C[C@@](O)(C(=O)OC1CCN(C)CC1)c1ccccc1`, the outcome was inactive.
Under `O=C(OC1CN2CCC1CC2)C(CO)(c1ccccc1)c1ccccc1` (centres undefined) stands “inactive”.
As for `CN1CC[C@H](OC(=O)[C@](O)(c2ccccc2)C2CCCC2)C1`, the result was inactive.
For the molecule `CN1CCC[C@H](OC(=O)[C@](O)(c2ccccc2)C2CCCC2)C1`, the result was inactive.
